Test results taken from ChEMBL document CHEMBL4808242, “Discovery of GNE-502 as an orally bioavailable and potent degrader for estrogen receptor positive breast cancer” (Bioorg Med Chem Lett, 2021).

Protein sequences, listed by entry. Tags and fused reporters are not part of them.
UniProt P03372, whole entry: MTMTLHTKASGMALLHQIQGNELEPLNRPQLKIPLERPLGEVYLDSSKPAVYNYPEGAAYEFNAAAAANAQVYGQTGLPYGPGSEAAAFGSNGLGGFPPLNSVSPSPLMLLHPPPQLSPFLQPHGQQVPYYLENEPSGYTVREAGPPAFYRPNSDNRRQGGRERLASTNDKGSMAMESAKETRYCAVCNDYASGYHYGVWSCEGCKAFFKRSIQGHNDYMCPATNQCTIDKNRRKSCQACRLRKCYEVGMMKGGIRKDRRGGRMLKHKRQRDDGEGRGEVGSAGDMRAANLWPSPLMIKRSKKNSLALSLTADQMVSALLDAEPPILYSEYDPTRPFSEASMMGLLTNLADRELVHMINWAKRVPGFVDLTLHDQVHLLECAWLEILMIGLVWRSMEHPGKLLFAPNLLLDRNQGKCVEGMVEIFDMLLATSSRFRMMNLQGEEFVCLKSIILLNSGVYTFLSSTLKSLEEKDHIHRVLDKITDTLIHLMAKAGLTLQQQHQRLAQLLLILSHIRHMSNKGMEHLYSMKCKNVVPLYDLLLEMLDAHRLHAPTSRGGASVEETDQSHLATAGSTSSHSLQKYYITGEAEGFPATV

Molecular target: Estrogen receptor (Homo sapiens, UniProt P03372)
Test: Induction of ERalpha degradation in human MCF7 cells assessed as maximum degradation by immunofluorescence assay relative to control
Type: cell-based

In the case of `C[C@@H]1Cc2c([nH]c3ccccc23)[C@@H](c2c(F)cc(OCCN3CC(CF)C3)cc2F)N1CC(C)(C)F`, the %max is reported as 95%.
